# From patent publication US7915223B2, “Antimicrobial agents” (priority 2004, dated 2011)
# System: E. coli strain ATCC 35218
# Type: cell-based, Escherichia coli
# Settings: tenth subculture generation after exposure to sub-lytic concentrations
substance,measurement,value
gentamycin,relative MIC (increase of MIC value),4 fold
